# Assay results as given in patent publication US20220283175A1, “METALLOENZYMES FOR BIOMOLECULAR RECOGNITION OF N-TERMINAL MODIFIED PEPTIDES” (Encodia, Inc., priority 2020, published 2022).
# How the values were obtained:
# Assay in all cases: cell-based or functional assay
# M64-FAEIR = target: M64-FAEIR
# M64-AAEIR = target: M64-AAEIR
# M64-DAEIR = target: M64-DAEIR
# M64-LAEIR = target: M64-LAEIR
# M64-EAEIR = target: M64-EAEIR
substance,measurement,setting,value
"wild-type human carbonic anhydrase II (hCAII), SEQ ID NO: 7 (from UniProt P00918 4-259) (enzyme)","IC50 (inhibition of pNPA hydrolysis, colorimetric assay)",M64-FAEIR,0.018 µM
same,"IC50 (inhibition of pNPA hydrolysis, colorimetric assay)",M64-AAEIR,0.02 µM
same,"IC50 (inhibition of pNPA hydrolysis, colorimetric assay)",M64-DAEIR,0.089 µM
same,"IC50 (inhibition of pNPA hydrolysis, colorimetric assay)",M64-LAEIR,0.028 µM
same,"IC50 (inhibition of pNPA hydrolysis, colorimetric assay)",M64-EAEIR,0.63 µM
